Apparent affinities of Ab-14 variants for a coronavirus HR2 peptide

Source: Engelhart et al. 2022 (doi:10.1038/s41597-022-01779-4), MIT Lincoln Laboratory and A-Alpha Bio; data file from the FLAb repository.

Target: peptide PDVDLGDISGINAS, taken from heptad repeat 2 (HR2) of SARS-CoV-2 spike.

Each scFv is VH, a 15-residue (Gly4Ser)3 linker, VL, as in the parent Ab-14, and differs from it in the CDRs of the heavy chain only.
VH: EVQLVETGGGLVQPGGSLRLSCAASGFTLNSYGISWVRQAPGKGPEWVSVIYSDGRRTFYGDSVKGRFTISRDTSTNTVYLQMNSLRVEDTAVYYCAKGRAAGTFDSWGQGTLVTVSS
VL: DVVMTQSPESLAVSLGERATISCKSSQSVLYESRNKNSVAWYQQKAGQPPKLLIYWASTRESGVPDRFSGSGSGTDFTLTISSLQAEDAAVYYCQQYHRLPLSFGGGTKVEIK

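Phage display of a naive human antibody library on the peptide gave the parent. In library AAYL49, one, two or three CDR residues were substituted; doubles and triples were drawn at random. The scFvs were displayed on barcoded MATa yeast, the peptide on MATalpha yeast. Pairs that bind mate more often; barcode pairs of the diploids are counted by sequencing. The ratio of observed to expected reads was calibrated, replicate by replicate, on BCL2-family standards whose Kd was known from biolayer interferometry. There are three technical replicates.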

Substitutions are numbered in sequence along the VH above, starting at 1 (not Kabat). Values are log10 of the apparent Kd in nM; lower means stronger binding. An entry "ND" has no value in the source: the pair was not observed among the diploids in that replicate. This suggests poor binding but is not conclusive. Background: pairings of library AAYL49 with three empty control strains gave a value in 15% of cases (median 4.06, 5th percentile 2.83). Values in that range, when seen in few replicates, are hard to tell from nonspecific mating. Also given: how often the same scFv was detected with the empty control strains, with their mean in brackets.

| changes | log10 Kd (nM) by replicate | empty controls |
|---|---|---|
| F27L/G55P | 7.00 4.06 5.16 | 7 of 9 (4.52) |
| T58E/A101E/G103F | ND 3.11 ND | 1 of 9 (3.45) |
| R56E/G61Q/G103W | ND ND ND | 0 of 9 |
| I34W/I51P/D62A | ND ND ND | 3 of 9 (4.31) |
| Y32S/R56N/T104Q | ND ND ND | 3 of 9 (4.74) |
| Y32A/S63N/V64D | 4.29 ND ND | 4 of 9 (4.20) |
| Y32T/G33R | 4.90 3.84 ND | 3 of 9 (3.78) |
| F27S/S35Y/V64G | 4.65 4.30 ND | 4 of 9 (5.80) |
| G26D/Y52C/G61L | ND ND ND | 1 of 9 (2.47) |
| S35P/G61E/K65E | ND ND ND | 0 of 9 |
| G26L/Y52E | ND ND ND | 1 of 9 (5.04) |
| S31M/F59H/V64S | ND 2.70 ND | 0 of 9 |
| L29G/I34L/I51N | ND ND ND | 1 of 9 (2.55) |
| S53C/G61H | ND ND ND | 0 of 9 |
| L29R/D54W/R57P | ND ND ND | 1 of 9 (2.94) |
| T28M/Y60D/V64S | ND ND 5.36 | 4 of 9 (4.04) |
| Y60Q/K65L/A101G | ND ND ND | 1 of 9 (3.02) |
| G61D | 0.69 0.67 0.59 | 1 of 9 (4.99) |
| L29M/A102L | 2.68 2.40 2.73 | 1 of 9 (4.17) |
| T28Y/T58P/F59C | 3.79 ND 3.49 | 0 of 9 |
| L29F/V50G | ND ND 3.51 | 0 of 9 |
| T28A/G61Q/R100K | 0.24 0.72 0.26 | 0 of 9 |
| V50M/G99I | 5.65 4.71 6.51 | 3 of 9 (4.16) |
| T58V/G61Q/T104K | ND ND ND | 1 of 9 (2.82) |
| Y52I/S63P/T104H | ND 2.61 3.04 | 1 of 9 (2.59) |
| R57L/V64W/F105N | ND ND ND | 0 of 9 |
| F59V/A101S/D106Q | 2.13 1.75 1.46 | 0 of 9 |
| L29W/T58S/D106W | ND ND ND | 0 of 9 |
| D54N | ND 3.58 ND | 1 of 9 (3.71) |
| F27G/R57W/S63T | ND 4.85 ND | 0 of 9 |
| Y32P/D54F | ND ND ND | 2 of 9 (3.56) |
| G55Q/R56M/Y60P | ND ND ND | 0 of 9 |
| D62R/F105V/S107N | ND ND ND | 0 of 9 |
| R56G/G99F/G103K | ND ND ND | 0 of 9 |
| L29P/G99F/A101M | ND ND ND | 0 of 9 |
| L29Y/R100T/T104L | ND ND ND | 1 of 9 (2.39) |
| F59G/G61Y/D106R | ND 4.70 3.15 | 2 of 9 (4.15) |
| G26T/Y32H/A102F | ND 5.31 3.67 | 3 of 9 (4.07) |
| R57Y/T58S/S63W | ND ND 5.06 | 1 of 9 (3.59) |
| S35P/G99R/G103F | ND ND ND | 1 of 9 (2.53) |
| S31V/Y52P/K65Y | 3.97 ND ND | 5 of 9 (4.67) |
| R57H/F59E/A102T | ND ND ND | 0 of 9 |
| L29N/N30M/K65S | 3.72 ND ND | 0 of 9 |
| Y52G/S53E | ND ND ND | 0 of 9 |
| G26A/F27I/R56L | 1.22 1.32 1.36 | 2 of 9 (4.63) |
| L29K/S63R/G99L | 4.14 4.50 3.67 | 0 of 9 |

The first 4 entries again:

{"changes": "F27L/G55P", "log10 Kd (nM) by replicate": "7.00 4.06 5.16", "empty controls": "7 of 9 (4.52)"}
{"changes": "T58E/A101E/G103F", "log10 Kd (nM) by replicate": "ND 3.11 ND", "empty controls": "1 of 9 (3.45)"}
{"changes": "R56E/G61Q/G103W", "log10 Kd (nM) by replicate": "ND ND ND", "empty controls": "0 of 9"}
{"changes": "I34W/I51P/D62A", "log10 Kd (nM) by replicate": "ND ND ND", "empty controls": "3 of 9 (4.31)"}

In this assay the parent's reference entry averaged 0.65; its copy inside this library read 4.11 (one replicate of three).